The values that follow come from the supplement of paper PMC12317010.

This data set in a line: collision cross section in nitrogen (drift tube, single-field); higher = larger gas-phase ion size. Conditions: ion mode: Positive.
Where [1] appears, read: ion type: [M+Na], ion source: ESI.
[2] abbreviates: ion source: ESI, ion type: [M]+ (permanent cation).
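Note: chemical standards at 10 µM analysed by drift tube IMS-QTOF MS in about 3.95 torr nitrogen, mean of duplicate injections differing ≤1%, mass error below 10 ppm.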

For `CCOP(=S)(OCC)Oc1ncn(-c2ccccc2)n1` [Triazophos], the “collision cross section in nitrogen” value is listed as 171.2 Å² (ion type: [M+H], ion source: APCI); 171.4 Å² (ion type: [M+H], ion source: ESI); 180.2 Å² under setting [1].

Regarding `CCC[N+](CCC)(CCC)CCC` [Tetrapropylammonium hydroxide], under setting [2], the “collision cross section in nitrogen” value turned out to be 146.5 Å².

Consider `CCC[N+](CCC)(CCC)CCC` [Tetrapropylammonium bromide], for which the “collision cross section in nitrogen” value (ion source: APCI, ion type: [M]+ (permanent cation)) is 146 Å² and the “collision cross section in nitrogen” value under setting [2] is given as 146.2 Å².

For `OCCOCCOCCOCCO` [Tetraethylene glycol], the “collision cross section in nitrogen” value under setting [1] is listed as 141.4 Å².
